By UniProt entry, the sequences of proteins in these tests, tags left out. Chains listed by the source or under a name are the forms on record and can include a tag or linker.
UniProt P08485, as listed by the source: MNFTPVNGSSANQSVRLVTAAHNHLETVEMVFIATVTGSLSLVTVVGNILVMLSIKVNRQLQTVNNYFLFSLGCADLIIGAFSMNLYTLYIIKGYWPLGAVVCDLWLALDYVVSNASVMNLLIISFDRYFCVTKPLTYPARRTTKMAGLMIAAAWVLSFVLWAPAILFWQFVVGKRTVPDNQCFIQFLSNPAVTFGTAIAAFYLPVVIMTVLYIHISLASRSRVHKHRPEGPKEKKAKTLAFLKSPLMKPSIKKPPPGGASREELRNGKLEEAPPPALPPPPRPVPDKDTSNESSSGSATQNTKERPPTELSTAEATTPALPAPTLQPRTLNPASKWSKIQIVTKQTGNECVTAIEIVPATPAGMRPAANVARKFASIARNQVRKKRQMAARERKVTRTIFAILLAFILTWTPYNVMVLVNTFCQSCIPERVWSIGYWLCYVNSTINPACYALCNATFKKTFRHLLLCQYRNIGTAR

In BindingDB's records for doi:10.1111/j.1600-0773.1998.tb01469.x (Case Western Reserve University, 1998):

Target: Muscarinic acetylcholine receptor M4 (Rattus norvegicus, UniProt P08485)

`CN1C2CC(OC(=O)C(CO)c3ccccc3)CC1C1OC12` (stereo unspecified) [3-hydroxy-2-phenyl-propionic acid 9-methyl-3-oxa-9-aza-tricyclo[3.3.1.0*2,4*]non-7-yl ester] showed a Ki of 140 pM.
